Amino acid sequences for entries named in this document (tags omitted). A change or cut given only in a name is not applied to a line headed by its entry.
UniProt Q8WZA2: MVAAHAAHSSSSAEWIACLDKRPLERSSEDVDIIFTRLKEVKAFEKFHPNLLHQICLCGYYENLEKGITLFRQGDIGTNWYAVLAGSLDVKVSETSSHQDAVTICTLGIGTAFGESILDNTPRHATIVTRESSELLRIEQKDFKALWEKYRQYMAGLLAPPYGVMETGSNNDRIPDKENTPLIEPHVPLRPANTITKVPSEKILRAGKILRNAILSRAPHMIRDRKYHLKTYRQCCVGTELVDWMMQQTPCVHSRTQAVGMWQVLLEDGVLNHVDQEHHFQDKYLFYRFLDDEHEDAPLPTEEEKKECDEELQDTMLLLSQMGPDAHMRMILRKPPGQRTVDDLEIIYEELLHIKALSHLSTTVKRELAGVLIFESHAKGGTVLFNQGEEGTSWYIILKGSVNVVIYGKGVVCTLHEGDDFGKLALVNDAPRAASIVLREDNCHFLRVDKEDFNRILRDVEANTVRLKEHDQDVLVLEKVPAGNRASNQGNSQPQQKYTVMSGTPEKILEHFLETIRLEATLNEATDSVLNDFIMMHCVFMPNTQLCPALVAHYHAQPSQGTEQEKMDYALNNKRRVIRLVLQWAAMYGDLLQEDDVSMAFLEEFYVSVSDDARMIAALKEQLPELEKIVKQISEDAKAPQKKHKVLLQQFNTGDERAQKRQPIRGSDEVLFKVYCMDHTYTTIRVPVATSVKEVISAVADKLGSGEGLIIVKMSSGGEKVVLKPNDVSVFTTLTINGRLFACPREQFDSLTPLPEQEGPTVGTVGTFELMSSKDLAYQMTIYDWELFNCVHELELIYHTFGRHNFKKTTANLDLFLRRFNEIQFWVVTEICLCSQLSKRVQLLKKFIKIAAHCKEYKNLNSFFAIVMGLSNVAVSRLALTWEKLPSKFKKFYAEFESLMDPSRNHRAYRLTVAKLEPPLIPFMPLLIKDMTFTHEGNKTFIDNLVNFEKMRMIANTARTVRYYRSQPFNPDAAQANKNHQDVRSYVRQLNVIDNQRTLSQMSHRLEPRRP

In ChEMBL document CHEMBL4177657, “Structure-activity relationships of 2-substituted phenyl-N-phenyl-2-oxoacetohydrazonoyl cyanides as novel antagonists of exchange proteins directly activated by cAMP (EPACs)” (Bioorg Med Chem Lett, 2017):

What was measured:
[1] = molecular target: T1, Rap guanine nucleotide exchange factor 3 (Homo sapiens) (UniProt O95398); test: Antagonist activity at recombinant full length EPAC1 (unknown origin) assessed as inhibition of cAMP-mediated Rap1b-BODIPY GDP nucleotide exchange activity
T1 sequence (whole entry): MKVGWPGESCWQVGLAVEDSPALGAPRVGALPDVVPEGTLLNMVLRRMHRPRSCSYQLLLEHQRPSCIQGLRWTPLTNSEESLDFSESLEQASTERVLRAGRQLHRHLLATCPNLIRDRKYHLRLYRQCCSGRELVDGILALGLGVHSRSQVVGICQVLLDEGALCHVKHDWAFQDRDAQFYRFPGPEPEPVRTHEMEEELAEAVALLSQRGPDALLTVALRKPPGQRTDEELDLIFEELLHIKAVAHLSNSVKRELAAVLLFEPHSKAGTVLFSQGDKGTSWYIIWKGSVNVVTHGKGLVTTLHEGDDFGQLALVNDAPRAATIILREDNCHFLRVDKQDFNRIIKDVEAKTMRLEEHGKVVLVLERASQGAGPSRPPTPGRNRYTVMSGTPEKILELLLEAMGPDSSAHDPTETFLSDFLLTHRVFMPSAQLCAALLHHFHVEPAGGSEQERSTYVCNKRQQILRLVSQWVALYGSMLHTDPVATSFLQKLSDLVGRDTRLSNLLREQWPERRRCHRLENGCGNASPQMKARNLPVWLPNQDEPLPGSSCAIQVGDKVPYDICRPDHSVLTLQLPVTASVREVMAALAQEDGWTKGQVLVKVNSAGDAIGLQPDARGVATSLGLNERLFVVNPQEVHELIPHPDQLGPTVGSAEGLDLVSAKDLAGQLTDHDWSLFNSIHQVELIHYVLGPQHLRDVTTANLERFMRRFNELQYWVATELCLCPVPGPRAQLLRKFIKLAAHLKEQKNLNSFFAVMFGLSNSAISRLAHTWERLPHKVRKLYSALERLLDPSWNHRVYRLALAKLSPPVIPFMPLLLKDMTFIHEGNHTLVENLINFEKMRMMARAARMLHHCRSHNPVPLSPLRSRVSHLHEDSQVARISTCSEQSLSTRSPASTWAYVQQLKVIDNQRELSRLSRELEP
Procedure, shortened: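 Guanine nucleotide exchange on Rap1b loaded with BODIPY-GDP (Rap1b-bGDP), catalysed by EPAC1 in the presence of 20 μM cAMP. Inhibitor is tested over a dose range. GEF activity is expressed as a normalized reaction rate constant, and IC50 is taken from the dose-response curves. Values are mean ± SE, n = 3.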

[2] = molecular target: Rap guanine nucleotide exchange factor 4 (Homo sapiens, UniProt Q8WZA2); test: Antagonist activity at recombinant full length EPAC2 (unknown origin) assessed as inhibition of cAMP-mediated Rap1b-BODIPY GDP nucleotide exchange activity

Row | Compound | inhibition [1] | IC50 [2] [µM] | inhibition [2]
1 | CC(C)(C)c1ccc(C(=O)/C(C#N)=N/Nc2cccc(Cl)c2)cc1 | Dose-dependent effect | 28.4 | Dose-dependent effect
2 | N#C/C(=N\Nc1cc(Cl)cc(Cl)c1)C(=O)c1ccc2c(c1)CCCC2 | Dose-dependent effect | 1.2 | Dose-dependent effect
3 | CC(C)(C)c1ccc(C(=O)/C(C#N)=N/Nc2cc(F)c(F)c(F)c2)cc1 | – | 15.8 | –
4 | CC(C)(C)c1ccc(C(=O)/C(C#N)=N/Nc2cc(F)cc(Cl)c2)cc1 | – | 3.4 | –
5 | CC(C)(C)c1ccc(C(=O)/C(C#N)=N/Nc2ccc(Cl)c(C(F)(F)F)c2)cc1 | – | 12.4 | –
6 | CC(C)(C)c1ccc(C(=O)/C(C#N)=N/Nc2cc(Cl)cc(Cl)c2)cc1 | – | 2.5 | –
7 | CC(C)(C)c1ccc(C(=O)/C(C#N)=N/Nc2cc(Cl)cc(C(F)(F)F)c2)cc1 | – | 5.4 | –
8 | CC(C)(C)c1ccc(C(=O)/C(C#N)=N/Nc2cc(C(F)(F)F)cc(C(F)(F)F)c2)cc1 | Dose-dependent effect | 6.3 | Dose-dependent effect
9 | N#C/C(=N\Nc1cc(Cl)cc(Cl)c1)C(=O)c1ccc2ccccc2c1 | – | 2.5 | –
